{
  "source": "patent US7820706B2",
  "about": "“Multiple dose aromatase inhibitor for treating infertility” (Ares Trading S.A., priority 2001, dated 2010)",
  "key": {"[1]": {"test_system": "patients with unexplained infertility, poor responders to FSH", "test": "Example 2: letrozole with FSH in poor responders undergoing IUI", "type": "in vivo, human", "conditions": "mean + SD", "source_text": "Eight patients with unexplained infertility undergoing intrauterine insemination (IUI) received hFSH (human FSH) from cycle day 3 and were considered poor responders (<3 dominant follicles) during 16 FSH-only cycles. […] HCG (10,000 IU) was given when leading follicles were >2 cm followed by IUI. The mean+SD age and duration of infertility were 36.5+2.96 and 4.6+1.2 years, respectively."}, "[2]": {"test_system": "PCOS patients and unexplained infertility patients", "test": "Example 4: controlled study letrozole + FSH versus FSH only with IUI", "type": "in vivo, human", "source_text": "The study groups included 15 PCOS patients and 12 unexplained infertility patients. The control groups consisted of 25 PCOS patients and 55 unexplained infertility patients. All patients received recombinant or highly purified FSH (50-150 IU/day starting on day 3 to 7 until day of hCG (10,000 IU) that was given when 2 leading follicles were >2 cm). The FSH regimen was based on the patient's clinical profile. Patients were not randomized. All patients had intrauterine insemination. There was no statistically significant difference between the study and control groups as regards age, weight, infertility duration, number of prior insemination cycles, semen parameters or type of FSH."}},
  "data": [
    {"substance": "FSH only: follicle stimulating hormone (recombinant or highly purified) given alone", "values": [
      {"measurement": "Day of HCG administration", "setting": "[1]", "result": "12.2 + 2.9"},
      {"measurement": "E2/mature follicle on HCG day", "setting": "[1]", "result": "1097 + 557 pmol/L"},
      {"measurement": "E2 on HCG day", "setting": "[1]", "result": "1893 + 1066 pmol/L"},
      {"measurement": "Endometrial thickness (on HCG day)", "setting": "[1]", "result": "0.92 + 0.15 cm"},
      {"measurement": "FSH/cycle", "setting": "[1]", "result": "1469 + 498 IU"},
      {"measurement": "LH on HCG day", "setting": "[1]", "result": "14.7 + 13.2 IU/L"},
      {"measurement": "Number of mature follicles", "setting": "[1]", "result": "1.88 + 0.7"},
      {"measurement": "Stimulation days/cycle", "setting": "[1]", "result": "9.1 + 3"},
      {"measurement": "Day of hCG admin.", "setting": "[2]; PCOS", "result": 12},
      {"measurement": "Endometrial thickness (on HCG day)", "setting": "[2]; PCOS", "result": 11.7},
      {"measurement": "Estradiol on hCG day", "setting": "[2]; PCOS", "result": 3480, "unit": "pmol/L"},
      {"measurement": "Estradiol/mature follicle", "setting": "[2]; PCOS", "result": 967, "unit": "pmol/L"},
      {"measurement": "Follicle (>1.8 cm) on hCG day", "setting": "[2]; PCOS", "result": 3.6},
      {"measurement": "LH on hCG day", "setting": "[2]; PCOS", "result": 17.8, "unit": "IU/L"},
      {"measurement": "Pregnancy rate", "setting": "[2]; PCOS", "result": 20, "unit": "%"},
      {"measurement": "Total FSH dose/cycle", "setting": "[2]; PCOS", "result": 955, "unit": "IU"},
      {"measurement": "Day of hCG admin.", "setting": "[2]; unexplained infertility", "result": 12},
      {"measurement": "Endometrial thickness (on HCG day)", "setting": "[2]; unexplained infertility", "result": 12.1},
      {"measurement": "Estradiol on hCG day", "setting": "[2]; unexplained infertility", "result": 3140, "unit": "pmol/L"},
      {"measurement": "Estradiol/mature follicle", "setting": "[2]; unexplained infertility", "result": 969, "unit": "pmol/L"},
      {"measurement": "Follicle (>1.8 cm) on hCG day", "setting": "[2]; unexplained infertility", "result": 3.2},
      {"measurement": "LH on hCG day", "setting": "[2]; unexplained infertility", "result": 18.3, "unit": "IU/L"},
      {"measurement": "Pregnancy rate", "setting": "[2]; unexplained infertility", "result": 18, "unit": "%"},
      {"measurement": "Total FSH dose/cycle", "setting": "[2]; unexplained infertility", "result": 1320, "unit": "IU"}
    ]}
  ]
}
